Experimental data: patent publication US11382898B2, “BAX activators and uses thereof in cancer therapy” (Albert Einstein College of Medicine, priority 2017, dated 2022)

By UniProt entry, the sequences of proteins in these tests, tags left out. Residues count along the entry.
UniProt Q07812, whole entry: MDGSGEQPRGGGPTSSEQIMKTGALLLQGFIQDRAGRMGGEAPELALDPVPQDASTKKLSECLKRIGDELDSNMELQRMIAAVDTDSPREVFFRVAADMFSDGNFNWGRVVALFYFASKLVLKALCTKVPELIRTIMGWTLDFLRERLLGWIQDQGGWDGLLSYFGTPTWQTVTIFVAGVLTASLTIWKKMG
UniProt Q07817, 1-212 limits assumed: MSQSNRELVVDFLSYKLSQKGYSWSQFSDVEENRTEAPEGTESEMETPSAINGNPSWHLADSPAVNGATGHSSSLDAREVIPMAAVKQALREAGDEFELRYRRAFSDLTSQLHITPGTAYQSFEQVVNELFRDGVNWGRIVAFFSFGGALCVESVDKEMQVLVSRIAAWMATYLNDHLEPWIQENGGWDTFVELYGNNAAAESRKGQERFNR

How the values were obtained:
BAX [1] = molecular target: T1, BAX (Homo sapiens, UniProt Q07812)
[2] = tested on: primary human AML and healthy control samples
[3] = tested on: BAX KO MEF, DKO MEF, wild type MEF, H9c2 myocytes and 3T3 fibroblasts
BAX [4] = molecular target: T1, BAX; test: Competitive fluorescence polarization assay, FITC-BIM SAHBA2 from the BAX trigger site; type: binding; set-up: with serial dilutions of full-length BAX, BCL-XLΔC, MCL-1ΔNΔC, BFL-1/A1ΔC; made in house; host or cells: Escherichia coli
Experimental: (§1) Fluorescence polarization assays (FPA) were performed as previously described (Gavathiotis et al., 2012). Firstly, direct binding isotherms were generated by incubating FITC-BIM SAHBA2 (50 nM) with serial dilutions of full-length BAX, BCL-XLΔC, MCL-1ΔNΔC, BFL-1/A1ΔC and fluorescence polarization was measured at 20 minutes on a F200 PRO microplate reader (TECAN). Subsequently, in competition assays, a serial dilution of small molecule or acetylated BIM SAHBA2 (Ac-BIM SAHB) was combined with FITC-BIM SAHBA2 (50 nM), followed by the addition of recombinant protein at ˜EC75 concentration, as determined by the direct binding assay (BAX: 500 nM; BCL-XLΔC, MCL-1ΔNΔC, BFL-1/A1ΔC: 200 nM).
(§2) A competitive fluorescence polarization assay that evaluates the capacity of compounds to compete a fluorescein-labeled stapled peptide of the BIM BH3 helix, FITC-BIM SAHBA2, from the BAX trigger site, was used to determine the binding potency (Gavathiotis et al., 2008; Gavathiotis et al., 2012).

[5] = tested on: human acute myeloid leukemia cell lines HL60, THP-1, NB4, OCI-AML3 and U937; test: Cell viability assay of AML cell lines (CellTiter-Glo)
BCL-XL = molecular target: T2, BCL-XL (Homo sapiens, UniProt Q07817); test: Competitive fluorescence polarization assay, FITC-BIM SAHBA2 bound to BCL-XL; type: binding
T2 construct: BCL-XLΔC, MCL-1ΔNΔC, BFL-1/A1ΔC: 200 nM; made in house; host or cells: Escherichia coli
Experimental: as §1, §2

MCL-1 = test: Competitive fluorescence polarization assay, FITC-BIM SAHBA2 bound to MCL-1; type: binding, Human
Experimental: as §1, §2

With O=C1C(=NNc2nccs2)C(c2ccccc2)=NN1c1nc(-c2ccccc2)cs1 [BTSA1, 5-phenyl-2-(4-phenylthiazol-2-yl)-4-(2-(thiazol-2-yl)hydrazono)-2,4-dihydro-3H-pyrazol-3-one] as the compound, how does the “effect on mitochondria in the absence of BAX” value (BAX [1]) read?
The value was “no effect”.

What about the “activity in leukemic stem cell-enriched fractions (CD34+CD38−)” value [2] of the same compound?
Its value is “effective”.

And the “apoptosis in primary AML blast cells” value [2]?
The value was “induced dose-dependent apoptosis”.

And the “apoptosis of primary bone marrow CD34+CD38− cells from healthy donors” value [2]?
The value was “did not affect apoptosis”.

What about the “response of BAX-expressing non-leukemia cells to treatment” value [3] of the same compound?
The value was “resistance”.

And the “response of cells with no BAX expression to treatment” value [3]?
Its value is “resistance”.

What about the IC50 (BAX [4]) of the same compound?
The IC50 was 250 nM.

What about the EC50 ([5]; Homo sapiens, 24 h, read-out: mean effective concentration (EC50), viability) of the same compound?
Its EC50 is 1000 to 4000 nM.

And the “time to substantial cell death activity” value ([5]; viability at different time points, 5 μM)?
The value was at most 6 h.

What about the “capacity to compete FITC-BIM SAHBA2 from BCL-XL” value (BCL-XL) of the same compound?
The value was “no capacity to compete”.

What about the “capacity to compete FITC-BIM SAHBA2 from MCL-1” value (MCL-1) of the same compound?
Its value is “no capacity to compete”.
